The results in this text go back to publication PMC11380579.

Chains of the proteins cited; added tags and fusions are not shown. Residues count along the entry.
UniProt Q9P7T4, 651-900: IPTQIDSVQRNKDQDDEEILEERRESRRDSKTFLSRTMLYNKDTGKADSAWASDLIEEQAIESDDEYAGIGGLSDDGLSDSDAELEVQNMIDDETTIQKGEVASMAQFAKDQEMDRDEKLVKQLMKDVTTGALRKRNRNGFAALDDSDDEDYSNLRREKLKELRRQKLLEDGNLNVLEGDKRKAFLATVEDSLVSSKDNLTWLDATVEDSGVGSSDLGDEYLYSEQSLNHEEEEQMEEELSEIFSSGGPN

In the experiment the target is Mrc1-(651–900) (S. pombe) (UniProt Q9P7T4). Put plainly: mass photometry; Refeyn TwoMP; 10–20 nM of the samples eluted from the Superdex 200 column; 20 mM HEPES-KOH pH 7.5, 500 mM NaCl.

Regarding “histone H3-H4 tetramer (from UniProt P09988 1-136; P09322 1-103) (complex)”, the stoichiometry N (Mrc1-like domain per H3-H4 tetramer) stood at 1.
